{"source": "paper PMC9287160", "about": "“Structural insights into the function-modulating effects of nanobody binding to the integrin receptor αMβ2” (The Journal of Biological Chemistry, 2022)", "binders": {"B1": {"name": "nanobody hCD11bNb1 (His-tagged) (VHH)", "VHH": "QVQLVETGGGLVQAGGSLRLSCAASGNINSFNAMGWFRQAPGKQRELVAAITFGGRTNYADSVKGRFTISRDNTKGSVYLQMNSLKPEDTAVYYCAASENNLLTGVWHYWGRGTQVTVSS", "notes": "nanobody selected by phage display from a llama immunised with the αMβ2 HP; they are in PDB 7NP9 (nanobody alone) and PDB 7P2D (complex); Captured through its His tag on anti-penta-HIS BLI sensors. pET-22b(+) usually adds a C-terminal His6 (surmise); also called parental hCD11bNb1; WT hCD11bNb1"}}, "key": {"[1]": {"target": "T1, human integrin αMβ2 headpiece fragment (Homo sapiens); ITGAM isoform 2 (as in …)", "experiment": "BLI; His-tagged hCD11bNb1 on anti-penta-HIS sensors; αMβ2 HP 6.25-50 nM or αI domain 0.8-25 nM in solution; 30 °C; 20 mM Hepes pH 7.5, 150 mM NaCl, 5 mM MgCl2, 1 mM CaCl2; 1:1 model; triplicates; apparent", "settings": "both partners purified"}, "[2]": {"target": "T1, human integrin αMβ2 headpiece fragment", "experiment": "BLI; competition: biotinylated avi-tagged hCD11bNb1 on streptavidin sensors; 20 nM αMβ2 HP alone or preincubated with 10-fold molar excess of hCD11bNb1 WT or mutants; 30 °C; running buffer with 1 mg/ml BSA", "settings": "both partners purified"}}}
{"binder": "B1", "values": [{"measurement": "Kd", "setting": "[1]", "value": "1 to 6", "unit": "nM"}, {"measurement": "percent of the signal of αMβ2 HP on immobilised hCD11bNb1 left with a 10-fold molar excess", "setting": "[2]", "value": "~22", "unit": "%"}]}
